Reference: article PMC8002179

B1: wild type ACKR3 fused with Renilla luciferase (RLuc) on the C-terminal tail [human] / β-arrestin1 tagged with the eYFP fluorescent protein [not stated] (parent)
chain 1: MGDKGTRVFKKASPNGKLTVYLGKRDFVDHIDLVDPVDGVVLVDPEYLKERRVYVTLTCAFRYGREDLDVLGLTFRKDLFVANVQSFPPAPEDKKPLTRLQERLIKKLGEHAYPFTFEIPPNLPCSVTLQPGPEDTGKACGVDYEVKAFCAENLEEKIHKRNSVRLVIRKVQYAPERPGPQPTAETTRQFLMSDKPLHLEASLDKEIYYHGEPISVNVHVTNNTNKTVKKIKISVRQYADICLFNTAQYKCPVAMEEADDTVAPSSTFCKVYTLTPFLANNREKRGLALDGKLKHEDTNLASSTLLREGANREILGIIVSYKVKVKLVVSRGGLLGDLASSDVAVELPFTLMHPKPKEEPPHREVPENETPVDTNLIELDTNDDDIVFEDFARQRLKGMKDDKEEEEDGTGSPQLNNR
chain 2: MDLHLFDYSEPGNFSDISWPCNSSDCIVVDTVMCPNMPNKSVLLYTLSFIYIFIFVIGMIANSVVVWVNIQAKTTGYDTHCYILNLAIADLWVVLTIPVWVVSLVQHNQWPMGELTCKVTHLIFSINLFGSIFFLTCMSVDRYLSITYFTNTPSSRKKMVRRVVCILVWLLAFCVSLPDTYYLKTVTSASNNETYCRSFYPEHSIKEWLIGMELVSVVLGFAVPFSIIAVFYFLLARAISASSDQEKHSSRKIIFSYVVVFLVCWLPYHVAVLLDIFSILHYIPFTCRLEHALFTALHVTQCLSLVHCCVNPVLYSFINRNYRYELMKAFIFKYSAKTGLTKLIDASRVSETEYSALEQSTK

Variants of: B1
Test: BRET
Conditions: CXCL12 (100 nM), HEK293T cells, read at last time point (~56 min), read off a plot

| response | Variant |
| --- | --- |
| 1 fold vehicle | chain 2 MDLHLFDYSEPGNFSDISWPCNSSDCIVVDTVMCPNMPNKSVLLYTLSFIYIFIFVIGMIANSVVVWVNIQAKTTGYDTHCYILNLAIADLWVVLTIPVWVVSLVQHNQWPMGELTCKVTHLIFSINLFGSIFFLTCMSVDRYLSITYFTNTPSSRKKMVRRVVCILVWLLAFCVSLPDTYYLKTVTSASNNETYCRSFYPEHSIKEWLIGMELVSVVLGFAVPFSIIAVFYFLLARAISASSDQEKHSSRKIIFSYVVVFLVCWLPYHVAVLLDIFSILHYIPFTCRLEHALFTALHVTQCLSLVHCCVNPVLYSFINRNYRYELMKAFIFKYSAKTGLTKLIDASRVAEAEYAALEQSTK [chain 2 S350A T352A S355A] |
| 1.08 fold vehicle | chain 2 MDLHLFDYSEPGNFSDISWPCNSSDCIVVDTVMCPNMPNKSVLLYTLSFIYIFIFVIGMIANSVVVWVNIQAKTTGYDTHCYILNLAIADLWVVLTIPVWVVSLVQHNQWPMGELTCKVTHLIFSINLFGSIFFLTCMSVDRYLSITYFTNTPSSRKKMVRRVVCILVWLLAFCVSLPDTYYLKTVTSASNNETYCRSFYPEHSIKEWLIGMELVSVVLGFAVPFSIIAVFYFLLARAISASSDQEKHSSRKIIFSYVVVFLVCWLPYHVAVLLDIFSILHYIPFTCRLEHALFTALHVTQCLSLVHCCVNPVLYSFINRNYRYELMKAFIFKYSAKTGLTKLIDASRVSETEYSALEQAAK [chain 2 S360A T361A] |

Variants of: B1
Test: BRET
Conditions: CXCL12 (100 nM), HEK293T cells, read at last time point (~56 min), read off a plot
Remark: another data set of the same source

| response | Variant |
| --- | --- |
| 1.01 fold vehicle | chain 2 MDLHLFDYSEPGNFSDISWPCNSSDCIVVDTVMCPNMPNKSVLLYTLSFIYIFIFVIGMIANSVVVWVNIQAKTTGYDTHCYILNLAIADLWVVLTIPVWVVSLVQHNQWPMGELTCKVTHLIFSINLFGSIFFLTCMSVDRYLSITYFTNTPSSRKKMVRRVVCILVWLLAFCVSLPDTYYLKTVTSASNNETYCRSFYPEHSIKEWLIGMELVSVVLGFAVPFSIIAVFYFLLARAISASSDQEKHSSRKIIFSYVVVFLVCWLPYHVAVLLDIFSILHYIPFTCRLEHALFTALHVTQCLSLVHCCVNPVLYSFINRNYRYELMKAFIFKYSAKTGLTKLIDASRVAEAEYAALEQSTK [chain 2 S350A T352A S355A] |
| 1.07 fold vehicle | chain 2 MDLHLFDYSEPGNFSDISWPCNSSDCIVVDTVMCPNMPNKSVLLYTLSFIYIFIFVIGMIANSVVVWVNIQAKTTGYDTHCYILNLAIADLWVVLTIPVWVVSLVQHNQWPMGELTCKVTHLIFSINLFGSIFFLTCMSVDRYLSITYFTNTPSSRKKMVRRVVCILVWLLAFCVSLPDTYYLKTVTSASNNETYCRSFYPEHSIKEWLIGMELVSVVLGFAVPFSIIAVFYFLLARAISASSDQEKHSSRKIIFSYVVVFLVCWLPYHVAVLLDIFSILHYIPFTCRLEHALFTALHVTQCLSLVHCCVNPVLYSFINRNYRYELMKAFIFKYSAKTGLTKLIDASRVAETEYSALEQSTK [chain 2 S350A] |
| 1.03 fold vehicle | chain 2 MDLHLFDYSEPGNFSDISWPCNSSDCIVVDTVMCPNMPNKSVLLYTLSFIYIFIFVIGMIANSVVVWVNIQAKTTGYDTHCYILNLAIADLWVVLTIPVWVVSLVQHNQWPMGELTCKVTHLIFSINLFGSIFFLTCMSVDRYLSITYFTNTPSSRKKMVRRVVCILVWLLAFCVSLPDTYYLKTVTSASNNETYCRSFYPEHSIKEWLIGMELVSVVLGFAVPFSIIAVFYFLLARAISASSDQEKHSSRKIIFSYVVVFLVCWLPYHVAVLLDIFSILHYIPFTCRLEHALFTALHVTQCLSLVHCCVNPVLYSFINRNYRYELMKAFIFKYSAKTGLTKLIDASRVSETEYAALEQSTK [chain 2 S355A] |
| 1 fold vehicle | chain 2 MDLHLFDYSEPGNFSDISWPCNSSDCIVVDTVMCPNMPNKSVLLYTLSFIYIFIFVIGMIANSVVVWVNIQAKTTGYDTHCYILNLAIADLWVVLTIPVWVVSLVQHNQWPMGELTCKVTHLIFSINLFGSIFFLTCMSVDRYLSITYFTNTPSSRKKMVRRVVCILVWLLAFCVSLPDTYYLKTVTSASNNETYCRSFYPEHSIKEWLIGMELVSVVLGFAVPFSIIAVFYFLLARAISASSDQEKHSSRKIIFSYVVVFLVCWLPYHVAVLLDIFSILHYIPFTCRLEHALFTALHVTQCLSLVHCCVNPVLYSFINRNYRYELMKAFIFKYSAKTGLTKLIDASRVSEAEYSALEQSTK [chain 2 T352A] |
